Experimental data as given in patent publication US20240150321A1, “PYRAZOLYLSULFONAMIDE COMPOUNDS AND THEIR USE IN THERAPY” (HOTSPOT THERAPEUTICS, INC., priority 2022, published 2024).

Test system: NF-kB reporter in Jurkat cells
Test: NF-kB reporter assay in Jurkat cells stimulated with aCD3/aCD28/PMA
Assay type: cell-based
Settings: read-out: NF-kB Reporter Assay IC50, 1 hr compound pre-incubation, aCD3/aCD28/PMA stimulation 4 hr, One-Glo readout
Method: Jurkat cells were maintained in complete RPMI 1640 media supplemented with 10% FBS. Prior to the assay, 120 nL of the serial diluted compound was added in each well of 384-well flat bottom white plate (Corning #3570) by using liquid handler Echo550. Jurkat cells were harvested by centrifugation at 120 g for 10 min and resuspended in fresh RPMI 1640 media without serum. […] (25,000 cells) were seeded in each well of 384-well plate containing compound. After 1 hr incubation at 37° C. in a 5% CO2 incubator, […] of diluted aCD3/aCD28/PMA (final concentration at […] and […], respectively) in RPMI 1640 without serum were added to each well. After incubation at 37° C. in 5% CO2 for 4 hr, […] of One-Glo reagent (Promega #E6120) was added into each well. The plate was left at room temperature for 5 min and the signal was measured on EnVision (PerkinElmer).
Compounds in which an IC50 was not measured are designated as “N/A”.

## COc1ccc2cnn(C)c2c1NS(=O)(=O)c1cnn(-c2cc(C(C)OC)ccn2)c1 (single isomer, unassigned)
  IC50: < 0.4 µM
